Legend:
P2X purinoceptor 7 [1] = molecular target: P2X purinoceptor 7 (Homo sapiens, UniProt Q99572); experiment: Antagonist activity at recombinant human P2X7 expressed in human 1321N1 cells assessed as inhibition of BzATP-induced calcium flux preincubated for 30 mins followed by BzATP addition measured over 180 secs by FLIPR assay; format: cell-based
P2X purinoceptor 7 [2] = molecular target: T1, P2X purinoceptor 7 (Rattus norvegicus, UniProt Q64663); experiment: Antagonist activity at recombinant rat P2X7 expressed in human 1321N1 cells assessed as inhibition of BzATP-induced calcium flux preincubated for 30 mins followed by BzATP addition measured over 180 secs by FLIPR assay; format: cell-based
T1 sequence (Q64663 whole entry): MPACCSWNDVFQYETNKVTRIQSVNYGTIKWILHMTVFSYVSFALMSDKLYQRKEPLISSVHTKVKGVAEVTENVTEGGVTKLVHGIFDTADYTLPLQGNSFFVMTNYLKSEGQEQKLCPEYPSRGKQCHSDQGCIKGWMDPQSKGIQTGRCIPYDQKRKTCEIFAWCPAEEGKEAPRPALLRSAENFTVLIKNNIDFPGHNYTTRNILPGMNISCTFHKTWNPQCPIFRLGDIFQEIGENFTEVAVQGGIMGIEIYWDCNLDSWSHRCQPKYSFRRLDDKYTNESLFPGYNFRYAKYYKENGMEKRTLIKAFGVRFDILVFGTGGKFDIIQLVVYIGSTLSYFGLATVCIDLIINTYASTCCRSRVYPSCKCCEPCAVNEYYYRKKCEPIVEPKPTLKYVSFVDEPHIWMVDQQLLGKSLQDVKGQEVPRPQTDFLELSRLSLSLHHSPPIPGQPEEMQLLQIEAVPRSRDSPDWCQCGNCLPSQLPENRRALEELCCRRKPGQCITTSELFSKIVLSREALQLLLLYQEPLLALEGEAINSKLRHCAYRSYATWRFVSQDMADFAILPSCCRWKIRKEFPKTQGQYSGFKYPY

Sequences of proteins named here, by UniProt entry; tags and fusion partners are left off. A change or cut given only in a name is not applied to a line headed by its entry.
UniProt Q99572: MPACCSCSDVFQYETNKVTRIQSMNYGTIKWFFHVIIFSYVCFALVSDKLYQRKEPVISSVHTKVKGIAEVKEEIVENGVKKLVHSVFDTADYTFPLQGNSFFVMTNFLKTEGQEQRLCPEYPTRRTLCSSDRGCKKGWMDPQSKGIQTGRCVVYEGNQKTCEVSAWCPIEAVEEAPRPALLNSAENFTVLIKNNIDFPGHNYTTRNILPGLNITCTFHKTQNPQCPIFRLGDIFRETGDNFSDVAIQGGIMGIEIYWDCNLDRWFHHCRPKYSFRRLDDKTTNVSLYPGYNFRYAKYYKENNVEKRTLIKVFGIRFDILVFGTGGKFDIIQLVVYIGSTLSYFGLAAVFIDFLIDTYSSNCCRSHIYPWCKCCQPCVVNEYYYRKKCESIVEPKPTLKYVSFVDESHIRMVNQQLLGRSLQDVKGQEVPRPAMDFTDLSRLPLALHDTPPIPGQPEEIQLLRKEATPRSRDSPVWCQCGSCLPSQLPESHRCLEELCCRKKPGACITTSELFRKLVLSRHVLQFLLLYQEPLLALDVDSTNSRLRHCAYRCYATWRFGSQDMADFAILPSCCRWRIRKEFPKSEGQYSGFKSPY

| Ki (P2X purinoceptor 7 [1]) | IC50 (P2X purinoceptor 7 [2]) | IC50 (P2X purinoceptor 7 [1]) | SMILES |
| --- | --- | --- | --- |
| 12.9 nM | – | – | C[C@@H]1c2nnn(-c3ncccn3)c2CCN1C(=O)c1cccc(C(F)(F)F)c1Cl |
| – | 9.12 nM | 3.47 nM | C[C@@H]1c2nnn(-c3cnccn3)c2CCN1C(=O)c1cccc(C(F)(F)F)c1Cl |
| – | 12.3 nM | 8.32 nM | C[C@@H]1c2nnn(-c3cc(F)ccn3)c2CCN1C(=O)c1cccc(C(F)(F)F)c1Cl |
